In the series the test system is murine adenocarcinoma (1471.1) cells. Kind of series: Cytotoxicity after illumination, WST-8 assay. Conditions: 4 hours incubation. The class given is cell-based. The method, then:
The IC50 (concentration that inhibits growth by 50%) was determined utilizing a WST-8 assay. Four thousand cells were seeded into 96 well plates and incubated overnight in a humidified atmosphere containing 5% CO2. Varying concentrations of free Mce6 and Cort-Lys-Mce6 or HPMA copolymer-bound Mce6 conjugates (P-GFLG-Cort-Lys-Mce6 and P-GFLG-Mce6) were added to each well. Incubation was carried out for 4 hours in the case of free Mce6 and Cort-Lys-Mce6. The incubation period was 10 hours in the case of the HPMA copolymer-bound Mce6 conjugates. After the period of incubation, the media containing the drug was removed and 100 μL of fresh media was added and the cells were promptly illuminated for 30 min. The light source was three ENH Tungsten halogen lamps (120 V/250 W) placed in parallel, attenuated by three band-pass interference filters (Melles Griot Co., Carlsbad, Calif.). The light energy was approximately 2 mW cm^−2 as determined using a radiometer.
After illumination, the cells were incubated in a humidified atmosphere containing 5% CO2 for 24 hours. The media was replaced with 100 μL fresh media containing 10 μL of WST-8. After two hours incubation, the absorbance was read at 450 nm with background correction at 630 nm. […] Percentage of viable cells was calculated by dividing the mean absorbance of each well by the absorbance of the untreated cells. […]

In the case of “alpha-N-(Cortisol-C17-carbamoyl)-Lysyl-Mesochlorin ethyl amide [Cort-Lys-Mce6]”, the “times more cytotoxic than free Mce6” value is reported as “about 2.5 times”.

The values above are taken from patent publication US20070287680A1, “Combined Active and Passive Targeting of Biologically Active Agents” (University of Utah Research Foundation, priority 2004, published 2007).
